According to publication doi:10.1101/2025.04.08.647777 (bioRxiv, 2025):

B1: GST-CSN2 (natural protein)
chain: MSDMEDDFMCDDEEDYDLEYSEDSNSEPNVDLENQYYNSKALKEDDPKAALSSFQKVLELEGEKGEWGFKALKQMIKINFKLTNFPEMMNRYKQLLTYIRSAVTRNYSEKSINSILDYISTSKQMDLLQEFYETTLEALKDAKNDRLWFKTNTKLGKLYLEREEYGKLQKILRQLHQSCQTDDGEDDLKKGTQLLEIYALEIQMYTAQKNNKKLKALYEQSLHIKSAIPHPLIMGVIRECGGKMHLREGEFEKAHTDFFEAFKNYDESGSPRRTTCLKYLVLANMLMKSGINPFDSQEAKPYKNDPEILAMTNLVSAYQNNDITEFEKILKTNHSNIMDDPFIREHIEELLRNIRTQVLIKLIKPYTRIHIPFISKELNIDVADVESLLVQCILDNTIHGRIDQVNQLLELDHQKRGGARYTALDKWTNQLNSLNQAVVSKLA
B2: GST-CSN3 (natural protein)
chain: MASALEQFVNSVRQLSAQGQMTQLCELINKSGELLAKNLSHLDTVLGALDVQEHSLGVLAVLFVKFSMPSVPDFETLFSQVQLFISTCNGEHIRYATDTFAGLCHQLTNALVERKQPLRGIGILKQAIDKMQMNTNQLTSIHADLCQLCLLAKCFKPALPYLDVDMMDICKENGAYDAKHFLCYYYYGGMIYTGLKNFERALYFYEQAITTPAMAVSHIMLESYKKYILVSLILLGKVQQLPKYTSQIVGRFIKPLSNAYHELAQVYSTNNPSELRNLVNKHSETFTRDNNMGLVKQCLSSLYKKNIQRLTKTFLTLSLQDMASRVQLSGPQEAEKYVLHMIEDGEIFASINQKDGMVSFHDNPEKYNNPAMLHNIDQEMLKCIELDERLKAMDQEITVNPQFVQKSMGSQEDDSGNKPSSYS
B3: GST-CSN8 (natural protein)
chain: MPVAVMAESAFSFKKLLDQCENQELEAPGGIATPPVYGQLLALYLLHNDMNNARYLWKRIPPAIKSANSELGGIWSVGQRIWQRDFPGIYTTINAHQWSETVQPIMEALRDATRRRAFALVSQAYTSIIADDFAAFVGLPVEEAVKGILEQGWQADSTTRMVLPRKPVAGALDVSFNKFIPLSEPAPVPPIPNEQQLARLTDYVAFLEN

Biological target: MBP-DIC1 (UniProt O14576)
Assay: pull-down

Binder | binding result
B1 | binds
B2 | binds
B3 | binds
